# Results taken from paper PMC4980837 (Archiv der Pharmazie, 2013).
# Protein sequences, listed by entry. Tags and fused reporters are not part of them.
# UniProt Q9HCR9, whole entry, species assumed: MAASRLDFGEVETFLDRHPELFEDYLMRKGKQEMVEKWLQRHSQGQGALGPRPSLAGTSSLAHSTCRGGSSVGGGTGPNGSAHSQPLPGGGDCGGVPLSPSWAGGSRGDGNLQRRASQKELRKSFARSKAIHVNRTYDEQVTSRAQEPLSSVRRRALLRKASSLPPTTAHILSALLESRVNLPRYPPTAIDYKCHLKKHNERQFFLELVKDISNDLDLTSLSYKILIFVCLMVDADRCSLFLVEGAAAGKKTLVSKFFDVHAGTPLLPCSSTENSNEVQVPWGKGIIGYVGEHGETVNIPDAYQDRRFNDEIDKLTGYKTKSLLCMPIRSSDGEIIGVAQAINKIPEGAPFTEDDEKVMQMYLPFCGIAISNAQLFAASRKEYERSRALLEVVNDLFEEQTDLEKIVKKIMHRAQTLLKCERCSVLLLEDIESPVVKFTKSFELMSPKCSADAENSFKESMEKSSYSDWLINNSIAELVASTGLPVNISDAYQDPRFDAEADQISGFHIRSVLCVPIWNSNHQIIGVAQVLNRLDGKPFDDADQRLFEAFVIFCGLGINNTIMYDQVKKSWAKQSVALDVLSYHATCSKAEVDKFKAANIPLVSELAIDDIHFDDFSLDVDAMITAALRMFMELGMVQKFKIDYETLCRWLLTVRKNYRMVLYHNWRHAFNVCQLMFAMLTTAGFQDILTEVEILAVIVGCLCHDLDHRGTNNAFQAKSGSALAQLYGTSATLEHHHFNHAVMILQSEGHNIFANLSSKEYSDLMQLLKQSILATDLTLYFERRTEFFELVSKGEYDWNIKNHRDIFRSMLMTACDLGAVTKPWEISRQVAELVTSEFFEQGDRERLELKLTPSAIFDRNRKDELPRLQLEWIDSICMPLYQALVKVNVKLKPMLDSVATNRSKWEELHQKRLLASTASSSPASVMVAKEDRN
# How the values were obtained:
# [1] = target: recombinant human PDE5 (Homo sapiens, UniProt O76074); test: PDE5 inhibition, IMAP FP phosphodiesterase assay; type: biochemical; settings: for inhibition at 10 µM: read-out: PDE5 % inhibition at 10 μm
# [2] = target: PDE11A (Homo sapiens, UniProt Q9HCR9); test: PDE selectivity array, PDE11A with cGMP and cAMP as substrates; settings: ratio of IC50 PDE11A to PDE5A, cGMP as substrate
IC50 [1] [µM],inhibition at 10 µM [1] [%],Structure (SMILES),Selectivity index IC50 (PDE11A/PDE5A) cGMP/cGMP [2]
0.2,99,"CCN1C(=O)[C@H]2Cc3c([nH]c4ccccc34)[C@@H](c3ccc(Br)s3)N2C1=O [Compound 5, (5S,11aR) 5-(5-Bromo-2-thienyl)-2-ethyl-5,6,11,11a-tetrahydro-1H-imidazo[1′,5 ′:1,6]pyrido[3,4-b]indole-1,3(2H)-dione]",
2,78,"CCN1C(=O)[C@@H]2Cc3c([nH]c4ccccc34)[C@H](c3ccc(Br)s3)N2C1=O [Compound 7, (5R,11aS) 5-(5-Bromo-2-thienyl)-2-ethyl-5,6,11,11a-tetrahydro-1H-imidazo[1′,5 ′:1,6]pyrido[3,4-b]indole-1,3(2H)-dione]",
,,"CCN1C(=O)[C@@H]2Cc3c([nH]c4ccccc34)[C@@H](c3ccc(Br)s3)N2C1=O [Compound 8, (5S,11aS) 5-(5-Bromo-2-thienyl)-2-ethyl-5,6,11,11a-tetrahydro-1H-imidazo[1′,5 ′:1,6]pyrido[3,4-b]indole-1,3(2H)-dione]",49
4.8,66,"CCN1C(=O)[C@H]2Cc3c([nH]c4ccccc34)[C@H](c3ccc(Br)s3)N2C1=O [Compound 6, (5R,11aR) 5-(5-Bromo-2-thienyl)-2-ethyl-5,6,11,11a-tetrahydro-1H-imidazo[1′,5 ′:1,6]pyrido[3,4-b]indole-1,3(2H)-dione]",
